Ratio data for 3 compounds are collected here from ChEMBL document CHEMBL5376006, “Discovery of a Hidden Pocket beneath the NES Groove by Novel Noncovalent CRM1 Inhibitors” (J Med Chem, 2023).

By UniProt entry, the sequences of proteins in these tests, tags left out.
UniProt O14980, whole entry: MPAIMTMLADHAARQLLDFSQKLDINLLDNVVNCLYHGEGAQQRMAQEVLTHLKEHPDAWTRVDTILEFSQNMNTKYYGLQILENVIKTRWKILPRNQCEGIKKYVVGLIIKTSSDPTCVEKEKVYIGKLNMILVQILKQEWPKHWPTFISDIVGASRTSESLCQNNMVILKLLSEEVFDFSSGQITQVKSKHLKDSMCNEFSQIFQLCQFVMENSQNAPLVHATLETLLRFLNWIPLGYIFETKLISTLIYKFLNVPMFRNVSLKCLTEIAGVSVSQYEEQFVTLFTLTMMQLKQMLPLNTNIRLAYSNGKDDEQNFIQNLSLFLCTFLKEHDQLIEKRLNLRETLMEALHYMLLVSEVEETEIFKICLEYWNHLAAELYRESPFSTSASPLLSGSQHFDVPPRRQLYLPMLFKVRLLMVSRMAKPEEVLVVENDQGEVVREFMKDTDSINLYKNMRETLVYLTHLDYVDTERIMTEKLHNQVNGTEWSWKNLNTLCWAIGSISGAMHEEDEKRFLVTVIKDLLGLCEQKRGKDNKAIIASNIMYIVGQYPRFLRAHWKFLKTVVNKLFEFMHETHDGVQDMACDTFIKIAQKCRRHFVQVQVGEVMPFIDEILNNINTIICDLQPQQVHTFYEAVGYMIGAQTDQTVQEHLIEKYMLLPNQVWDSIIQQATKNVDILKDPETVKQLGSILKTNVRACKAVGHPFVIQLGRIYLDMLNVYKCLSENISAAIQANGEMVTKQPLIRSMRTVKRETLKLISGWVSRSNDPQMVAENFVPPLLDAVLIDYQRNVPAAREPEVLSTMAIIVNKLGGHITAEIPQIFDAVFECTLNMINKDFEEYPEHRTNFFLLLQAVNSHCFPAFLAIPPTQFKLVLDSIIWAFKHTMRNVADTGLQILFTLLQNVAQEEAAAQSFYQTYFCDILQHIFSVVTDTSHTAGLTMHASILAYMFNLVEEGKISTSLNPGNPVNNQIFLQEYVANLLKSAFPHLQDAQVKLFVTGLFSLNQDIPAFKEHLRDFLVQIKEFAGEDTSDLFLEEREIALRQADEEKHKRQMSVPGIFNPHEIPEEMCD

This experiment addresses Exportin-1 (Homo sapiens, UniProt O14980). Kind of experiment: Inhibition of CRM1 (unknown origin) binding to GST-tagged NES PKI assessed as CRM1/NES band ratio at 20 uM incubated for 1.5 hrs by Coomassie brilliant blue staining based pull-down assay.
Regarding `O=C(O)c1ccc(N2CCN(c3cc(C(F)(F)F)cc(C(F)(F)F)c3)CC2)c(NC(=O)c2ccc(Br)cc2)c1`, the Ratio stood at 0.1.

On to `O=C(O)c1ccc(N2CCN(c3cc(C(F)(F)F)ccc3C(F)(F)F)CC2)c(NC(=O)c2ccc(Cl)cc2)c1`, for which the Ratio stood at 0.07. The value for `O=C(O)c1ccc(N2CCN(c3cc(C(F)(F)F)ccc3C(F)(F)F)CC2)c(NC(=O)c2ccc(Br)cc2)c1` was 0.08.
